Experiments:
[1] = target: T1, human CD16a V176 variant, biotinylated (human, UniProt P08637 17-208, N-terminally biotinylated in-house); experiment: SPR
T1 construct: supplier is told for the AlphaScreen assay only; also called V Variant; FcγRIIIA V variant
Experimental: (§1) The SPR analysis was run at 25° C. at a flow rate of 50 μl/min with 60 seconds association and dissociation between 60 and 200 seconds. Data were corrected for DMSO excluded volume effects. All data were double-referenced for blank injections and reference surface using standard processing procedures and data processing and kinetic fitting were performed using Scrubber software, version 2.0c (BioLogic Software). Data were fitted using simple 1:1 binding model allowing for mass transport effects where appropriate.
(§2) For analysis of peptide binding, a Biacore 8k+ instrument was used with a CM5 chip (Cytiva). All experiments were carried out at 25° C. Streptavidin was immobilized on all flow cells by standard amine coupling chemistry. The running buffer was HBS-N(Cytiva, 10 mM HEPES, 0.15 M NaCl, pH 7.4) and the flow rate was 10 μl/min. The carboxymethyl dextran surface was activated with a 1:1 ratio of 0.4 M 1-ethyl-3-(3-dimethylaminopropyl) carbodiimide hydrochloride (EDC)/0.1 M N-hydroxy succinimide (NHS) (Cytiva) for 420s. Streptavidin (ProSpec, cat no. PRO-791) was diluted to 0.2 mg/ml in 10 mM sodium acetate pH 4.5 and was injected onto the chip surface for 600 s. Residual activated groups were blocked with a 420 s injection of 1 M ethanolamine (pH 8.5). The final surface density was 2000-3000 RU. Biotinylated CD16a was diluted to 5 μg/ml in HBS-N and was captured on flow cell 2 only of the streptavidin chip at a flow rate of 10 μl/min to 1500-2500 RU. The buffer was then changed to PBS-P+(Cytiva) supplemented with 0.5-2% DMSO. […] The flow rate was 30 μl/min with 100 s association and 400 s dissociation. Data were corrected for DMSO volume exclusion effects. All data were double-referenced against blank injections and reference surface response using standard processing procedures. Data processing and kinetic fitting was performed using Biacore Insight Evaluation Software with Extended Screening and Characterization Extension (Cytiva). Data were fitted using steady state affinity 1:1 binding model to determine KD. Data were fitted using kinetic 1:1 binding model to determine kinetic constants where appropriate.

Protein sequences, listed by entry. Tags and fused reporters are not part of them. Residues count along the entry.
UniProt P08637, 17-208 limits assumed, stated change not applied: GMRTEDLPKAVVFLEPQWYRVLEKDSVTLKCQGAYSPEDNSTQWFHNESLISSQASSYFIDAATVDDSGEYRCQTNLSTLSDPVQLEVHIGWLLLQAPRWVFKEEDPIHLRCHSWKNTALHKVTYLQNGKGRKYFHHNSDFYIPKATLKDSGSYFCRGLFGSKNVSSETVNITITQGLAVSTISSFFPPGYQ

[2] = target: T2, human CD16a F176 variant, biotinylated (human, UniProt P08637 17-208, C-terminally biotinylated); experiment: SPR
T2 construct: supplier is told for the AlphaScreen assay only; also called F Variant; FcγRIIIA F variant
Experimental: as §1, §2

Binder | Kd [1] [µM] | Kd [2] [µM]
ACRXSVEDPCGAWCA (not fully specified; CiR[AzaTrp]SVEDPCiiGAWCiii, scaffold TBMT) [BCY19055] | 6.96 | 
ACRWXFSEPCGAWCA (not fully specified; CiRW[His1Me]FSEPCiiGAWCiii, scaffold TBMT) [BCY20373] | 1.02 | 2.7
ACRWXFSEPCGAWCA (not fully specified; CiRW[His3Me]FSEPCiiGAWCiii, scaffold TBMT) [BCY20374] | 0.799 | 0.958

— US20240108738A1 (Bicycle, published 2024)
